These results are taken from patent publication US8404681B2, “Xanthones, thioxanthones and acridinones as DNA-PK inhibitors” (Luitpold Pharmaceuticals, Inc., priority 2003, dated 2013).

Amino acid sequences for entries named in this document (tags omitted).
UniProt P78527, whole entry: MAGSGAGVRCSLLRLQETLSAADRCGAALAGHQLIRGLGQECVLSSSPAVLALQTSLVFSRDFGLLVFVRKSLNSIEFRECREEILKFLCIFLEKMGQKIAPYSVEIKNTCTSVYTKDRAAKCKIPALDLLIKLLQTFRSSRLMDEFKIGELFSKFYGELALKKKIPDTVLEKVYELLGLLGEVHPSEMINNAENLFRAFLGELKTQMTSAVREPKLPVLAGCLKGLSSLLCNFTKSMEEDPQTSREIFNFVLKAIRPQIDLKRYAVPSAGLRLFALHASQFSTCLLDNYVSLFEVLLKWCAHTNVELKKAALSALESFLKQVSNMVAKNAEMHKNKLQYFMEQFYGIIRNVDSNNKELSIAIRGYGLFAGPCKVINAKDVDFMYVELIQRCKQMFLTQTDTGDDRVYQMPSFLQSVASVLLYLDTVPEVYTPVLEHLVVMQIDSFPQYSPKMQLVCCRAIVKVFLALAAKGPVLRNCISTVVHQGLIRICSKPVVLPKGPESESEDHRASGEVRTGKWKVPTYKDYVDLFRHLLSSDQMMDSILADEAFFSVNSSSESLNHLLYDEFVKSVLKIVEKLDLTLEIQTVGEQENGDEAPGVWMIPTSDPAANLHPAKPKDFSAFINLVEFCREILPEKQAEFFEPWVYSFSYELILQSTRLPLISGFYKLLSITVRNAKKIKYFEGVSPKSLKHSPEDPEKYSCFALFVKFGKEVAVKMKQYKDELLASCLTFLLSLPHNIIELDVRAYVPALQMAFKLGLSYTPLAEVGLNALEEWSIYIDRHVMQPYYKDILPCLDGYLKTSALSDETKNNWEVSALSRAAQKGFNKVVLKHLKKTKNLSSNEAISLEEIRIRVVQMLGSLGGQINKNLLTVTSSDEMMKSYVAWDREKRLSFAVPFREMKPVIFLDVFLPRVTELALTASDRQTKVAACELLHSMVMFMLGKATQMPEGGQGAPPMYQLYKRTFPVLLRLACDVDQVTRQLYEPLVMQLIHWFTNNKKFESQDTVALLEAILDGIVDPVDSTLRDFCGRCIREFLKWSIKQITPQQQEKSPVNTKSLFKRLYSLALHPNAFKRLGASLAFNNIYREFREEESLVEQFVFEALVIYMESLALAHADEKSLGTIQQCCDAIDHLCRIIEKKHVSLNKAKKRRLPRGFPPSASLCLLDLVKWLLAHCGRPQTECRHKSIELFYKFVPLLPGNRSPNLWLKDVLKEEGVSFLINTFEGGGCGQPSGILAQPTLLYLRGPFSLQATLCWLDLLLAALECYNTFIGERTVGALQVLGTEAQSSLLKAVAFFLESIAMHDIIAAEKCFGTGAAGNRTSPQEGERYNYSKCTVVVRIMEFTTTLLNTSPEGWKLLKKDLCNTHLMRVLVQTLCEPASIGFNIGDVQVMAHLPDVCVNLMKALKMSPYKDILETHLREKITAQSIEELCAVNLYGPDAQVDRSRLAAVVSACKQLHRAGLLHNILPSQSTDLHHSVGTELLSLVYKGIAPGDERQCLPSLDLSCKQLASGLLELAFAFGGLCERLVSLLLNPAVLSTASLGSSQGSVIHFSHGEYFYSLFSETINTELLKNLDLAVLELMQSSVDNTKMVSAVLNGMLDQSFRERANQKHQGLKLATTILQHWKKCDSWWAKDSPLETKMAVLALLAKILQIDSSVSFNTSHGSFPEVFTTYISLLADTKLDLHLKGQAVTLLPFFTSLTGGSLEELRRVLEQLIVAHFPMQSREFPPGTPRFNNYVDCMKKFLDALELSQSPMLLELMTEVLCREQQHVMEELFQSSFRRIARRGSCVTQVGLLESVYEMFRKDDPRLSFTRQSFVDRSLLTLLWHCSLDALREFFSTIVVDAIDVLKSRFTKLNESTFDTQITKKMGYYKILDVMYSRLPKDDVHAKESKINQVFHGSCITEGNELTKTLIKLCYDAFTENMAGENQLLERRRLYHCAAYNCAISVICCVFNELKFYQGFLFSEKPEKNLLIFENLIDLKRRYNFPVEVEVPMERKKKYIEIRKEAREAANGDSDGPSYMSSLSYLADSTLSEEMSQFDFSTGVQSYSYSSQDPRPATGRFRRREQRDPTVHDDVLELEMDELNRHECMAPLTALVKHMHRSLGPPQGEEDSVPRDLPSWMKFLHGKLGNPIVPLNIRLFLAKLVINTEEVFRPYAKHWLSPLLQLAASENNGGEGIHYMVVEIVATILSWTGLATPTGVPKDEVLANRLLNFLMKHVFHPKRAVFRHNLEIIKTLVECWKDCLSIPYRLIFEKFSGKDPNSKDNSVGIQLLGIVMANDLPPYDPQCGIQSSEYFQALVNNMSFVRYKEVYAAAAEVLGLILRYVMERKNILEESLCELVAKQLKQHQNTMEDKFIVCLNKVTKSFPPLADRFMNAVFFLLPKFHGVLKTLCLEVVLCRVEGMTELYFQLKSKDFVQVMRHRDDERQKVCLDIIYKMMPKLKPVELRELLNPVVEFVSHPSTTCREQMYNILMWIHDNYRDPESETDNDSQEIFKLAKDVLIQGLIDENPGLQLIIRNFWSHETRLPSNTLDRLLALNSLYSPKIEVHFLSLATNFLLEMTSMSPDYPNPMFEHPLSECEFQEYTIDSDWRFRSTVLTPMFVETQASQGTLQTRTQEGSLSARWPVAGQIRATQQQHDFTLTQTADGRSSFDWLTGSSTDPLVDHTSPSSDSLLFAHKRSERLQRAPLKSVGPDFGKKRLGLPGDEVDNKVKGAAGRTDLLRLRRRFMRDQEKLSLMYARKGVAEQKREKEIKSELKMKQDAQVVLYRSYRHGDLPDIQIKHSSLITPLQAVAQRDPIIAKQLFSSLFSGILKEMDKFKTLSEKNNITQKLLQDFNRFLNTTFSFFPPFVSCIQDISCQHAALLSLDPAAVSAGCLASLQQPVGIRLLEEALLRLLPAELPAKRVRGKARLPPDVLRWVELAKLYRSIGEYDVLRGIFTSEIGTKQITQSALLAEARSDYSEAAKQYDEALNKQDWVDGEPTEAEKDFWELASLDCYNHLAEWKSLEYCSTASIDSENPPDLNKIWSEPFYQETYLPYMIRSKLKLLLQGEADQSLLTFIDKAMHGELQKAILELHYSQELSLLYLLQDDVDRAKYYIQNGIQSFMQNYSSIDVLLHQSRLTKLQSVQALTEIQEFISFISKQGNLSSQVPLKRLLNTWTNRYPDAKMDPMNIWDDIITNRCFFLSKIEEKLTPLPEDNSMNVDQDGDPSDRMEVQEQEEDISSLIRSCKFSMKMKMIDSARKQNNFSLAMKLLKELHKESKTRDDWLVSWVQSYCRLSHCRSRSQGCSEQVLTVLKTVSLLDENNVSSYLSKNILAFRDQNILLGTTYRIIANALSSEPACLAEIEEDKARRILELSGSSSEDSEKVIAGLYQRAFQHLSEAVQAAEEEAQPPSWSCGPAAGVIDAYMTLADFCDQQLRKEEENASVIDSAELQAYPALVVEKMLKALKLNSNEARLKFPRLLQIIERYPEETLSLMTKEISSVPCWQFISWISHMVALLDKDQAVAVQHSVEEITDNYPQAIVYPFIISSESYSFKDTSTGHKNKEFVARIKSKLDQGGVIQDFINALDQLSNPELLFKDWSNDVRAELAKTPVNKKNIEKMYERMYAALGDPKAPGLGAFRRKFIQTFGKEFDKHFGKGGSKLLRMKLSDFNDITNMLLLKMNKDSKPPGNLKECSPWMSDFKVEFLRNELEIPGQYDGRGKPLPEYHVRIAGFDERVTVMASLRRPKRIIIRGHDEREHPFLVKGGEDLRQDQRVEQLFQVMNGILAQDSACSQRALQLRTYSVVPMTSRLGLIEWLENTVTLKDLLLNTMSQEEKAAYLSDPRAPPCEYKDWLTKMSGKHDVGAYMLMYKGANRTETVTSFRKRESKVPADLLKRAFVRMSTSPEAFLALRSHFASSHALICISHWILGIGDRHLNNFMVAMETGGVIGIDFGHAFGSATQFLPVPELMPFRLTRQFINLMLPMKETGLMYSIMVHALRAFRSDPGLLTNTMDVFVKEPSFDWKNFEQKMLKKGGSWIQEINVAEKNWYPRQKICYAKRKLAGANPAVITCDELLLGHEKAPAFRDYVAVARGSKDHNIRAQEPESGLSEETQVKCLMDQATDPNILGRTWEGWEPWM

In this test the target is T1, DNA-PK (Homo sapiens, UniProt P78527).
T1 construct: HeLa S3 cells (ATCC CCL-2.2; Batch F12594) were raised in MEM-Joklik media; endogenous in cells; host or cells: HeLa S3 cells (ATCC CCL-2.2); Endogenous enzyme purified in house: S100-2 fraction, then Q-Sepharose FF, then SP-Sepharose FF, giving fraction IV
The test is described as follows: Standard DNA-PK assay (phosphorylation of p53 peptide substrate). The format is biochemical. As to the method:
Reactions were carried out at room temperature. Reactions were started by addition of ATP and stopped by application to phosphocellulose paper. Reaction products spotted onto phosphocellulose paper were washed five times with a total volume of at least 250 mL 10% acetic acid or 150 mM phosphoric acid. The paper was air dried and radioactivity was determined in a Beckman LS6000IC scintillation counter.

Structures are written as SMILES.

The compound `COC[C@H]1OC(=O)c2coc3c2[C@@]1(C)C1=C(C3=O)[C@@H]2CCC(=O)[C@@]2(C)C[C@H]1OC(C)=O` [wortmannin, reference compound] returned a concentration for half-maximal inhibition (IC50) of 100 to 250 nM.
